Values of other authors as cited in US20180291335A1, “MODIFIED POLYNUCLEOTIDES FOR ALTERING CELL PHENOTYPE” (ModernaTX, Inc., priority 2012, published 2018).

Conditions: in vivo, iv; cited from earlier work

## penta[3-(1-laurylaminopropionyl)]-triethylenetetramine hydrochloride [Compound 98N12-5]
  distribution of the formulation to the liver: greater than 90%
